These are literature values, as cited in patent EP0087750B2, “Amino acid preparations containing glutaminic residues” (Kabi Pharmacia GmbH, priority 1982, dated 1994).

The data set deals with Hydrolasen in den Geweben des Organismus. The settings on record: in vivo, cited from earlier work.

Consider Glycyl-glycin, for which the “Spaltung durch Hydrolasen in den Geweben” value is recorded as “gut gespalten”. Also, the “Elimination aus dem Plasma” value (iv) was “schnell aus dem Plasma eliminiert”.
